Binding of CDR-mutated scFvs to a peptide of the spike HR2 region

Source: Engelhart et al. 2022 (doi:10.1038/s41597-022-01779-4), MIT Lincoln Laboratory and A-Alpha Bio; data file from the FLAb repository.

All variants were tested on one target, the spike HR2 peptide PDVDLGDISGINAS (SARS-CoV-2).

The variants keep the heavy chain, the linker and the frameworks of Ab-95 (scFv order VH, a 15-residue (Gly4Ser)3 linker, VL).
VH: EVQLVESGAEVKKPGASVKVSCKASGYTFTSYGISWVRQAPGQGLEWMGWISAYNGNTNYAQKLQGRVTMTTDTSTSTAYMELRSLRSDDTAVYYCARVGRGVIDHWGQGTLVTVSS
VL: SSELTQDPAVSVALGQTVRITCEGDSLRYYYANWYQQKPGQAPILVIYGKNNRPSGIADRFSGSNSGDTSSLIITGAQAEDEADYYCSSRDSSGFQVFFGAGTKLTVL

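The starting antibody came from a phage panning campaign against this peptide. Library AAYL52 holds single substitutions and randomly drawn double and triple substitutions in the CDRs. Affinity was read by AlphaSeq, a pooled yeast mating assay with surface-displayed partners. Pairs that bind mate more often; barcode pairs of the diploids are counted by sequencing. A regression on co-assayed BCL2-family reference pairs converts the normalised counts of each replicate to an apparent Kd. Each pool was mated in three replicate cultures.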

Positions count from residue 1 of the parent VL; Y29M puts M in place of Y.
Scale: log10 of Kd in nM, estimated from mating counts; low values are strong binders.
The mean shown is taken over the replicates in which the pair was detected.
"ND" marks a missing value. The strain was present, yet no cells mated with the target were sequenced in that replicate, which points to weak or no binding.
For reference, the parent read 2.31 as the reference entry and 2.25 as a member of this library.
As a blank, each scFv also met three strains without target: over library AAYL52, 28% of these pairings were detected, typically at 3.91 and seldom below 2.90. For each scFv, signals with the empty controls are counted beside the result, with their mean in brackets.

changes | log10 Kd, replicates | mean, log10 nM | signal with controls
Y29M+K50E+V97M | ND 4.12 ND | 4.12 | 3/9 (4.02)
Y31A+D91R+F98A | 2.95 2.53 2.43 | 2.64 | 4/9 (3.50)
D25H+K50D+D91T | 1.69 1.91 1.37 | 1.66 | 5/9 (4.27)
N33R+P54A+S92E | 3.65 ND ND | 3.65 | 5/9 (3.71)
G24L+G49V+S88Y | ND ND ND | ND | 1/9 (4.11)
L27K+N51R+R53I | 3.45 ND ND | 3.45 | 3/9 (4.51)
E23S+S89P+R90P | 5.16 4.11 ND | 4.64 | 5/9 (4.19)
L27R+G94N+F98S | ND 4.57 4.13 | 4.35 | 0/9
S26I+Y29C+N51V | 4.50 5.63 ND | 5.06 | 2/9 (4.42)
G24W+R28K+F95W | 3.12 ND ND | 3.12 | 2/9 (3.48)
Y30K+S55K+S93I | 3.70 2.44 1.92 | 2.69 | 0/9
N51K+N52Y+F98Q | ND 4.68 ND | 4.68 | 1/9 (3.67)
Y31E+N51P+F95L | 4.01 4.40 3.83 | 4.08 | 3/9 (4.16)
L27F+R28C+Y31D | 2.14 2.17 1.77 | 2.03 | 1/9 (3.99)
G24V+P54V+S55K | 3.29 3.87 3.39 | 3.52 | 3/9 (4.23)
L27H+A32Q+F95Y | ND 3.39 3.71 | 3.55 | 0/9
Y30P+G49A+S55D | 1.98 1.83 1.89 | 1.90 | 3/9 (4.00)
R28D+S55D+S89N | 3.19 3.14 3.25 | 3.19 | 3/9 (4.65)
Y30H+S88H+S93Y | 3.91 3.19 ND | 3.55 | 0/9
D25L+S26H+D91R | 4.52 4.22 4.35 | 4.36 | 1/9 (3.75)
E23P+D25A+R53S | ND ND ND | ND | 1/9 (3.79)
N51E+R90H | 3.10 4.47 3.17 | 3.58 | 3/9 (4.58)
D25A+R28K+Y30D | 1.82 1.78 1.40 | 1.67 | 5/9 (4.02)
R28S+N33W+Q96D | 3.65 ND ND | 3.65 | 3/9 (4.16)
G49F+N51P+R90D | ND ND ND | ND | 0/9
A32T+K50A+S89W | 2.59 2.42 1.84 | 2.29 | 7/9 (4.09)
Y31S+S88C+G94K | ND ND ND | ND | 1/9 (3.62)
S89H+S93T+V97M | 3.32 4.08 2.94 | 3.45 | 2/9 (3.00)
E23W+Q96W | 3.20 3.47 ND | 3.34 | 3/9 (3.79)
D25S+S55M+S93F | 2.46 3.10 2.87 | 2.81 | 1/9 (3.81)
R28S+N51F+F98W | 2.14 1.76 ND | 1.95 | 0/9
L27Q+Y29H | 3.02 3.08 3.16 | 3.09 | 1/9 (4.02)
E23I+D91Y+S93Q | ND 4.75 ND | 4.75 | 1/9 (3.94)
G49E+S55D+V97N | 3.91 4.66 ND | 4.28 | 1/9 (4.46)
S55V+S92Q+Q96V | 2.64 3.26 2.38 | 2.76 | 4/9 (3.73)
G49K+D91H+F98G | 3.30 3.05 4.16 | 3.50 | 7/9 (3.75)
R28Y+P54T+F95E | ND 2.90 3.63 | 3.26 | 3/9 (2.95)
G24P+D25E+S93G | ND 4.43 3.51 | 3.97 | 5/9 (3.53)
N33K+Q96C | ND ND ND | ND | 2/9 (4.64)
R28S+S55R+V97R | 3.54 3.83 3.56 | 3.64 | 3/9 (4.11)

The 4 strongest on average among those seen in every replicate, once more:

changes	log10 Kd, replicates	mean, log10 nM	signal with controls
D25H+K50D+D91T	1.69 1.91 1.37	1.66	5/9 (4.27)
D25A+R28K+Y30D	1.82 1.78 1.40	1.67	5/9 (4.02)
Y30P+G49A+S55D	1.98 1.83 1.89	1.90	3/9 (4.00)
L27F+R28C+Y31D	2.14 2.17 1.77	2.03	1/9 (3.99)